How the values were obtained:
HuT 78 = assay: Cell death (trypan blue uptake); type: cell-based, human; settings: HuT 78, freshly passaged, N6L 10 μM, mean of at least 2 independent experiments
Procedure: Human breast (MDA-MB-231, MDA-MB-435 [37]), prostate (LNCaP, from American Type Culture Collection, ATCC, Rockville, MD), and cervical (HeLa) epithelial cancer cells were grown in DMEM-glutamax medium (Gibco Invitrogen, Cergy-Pontoise, France) containing GlutaMAX™, 4.5 g/l glucose and supplemented with 10% heat-inactivated (56°C for 30 min) fetal bovine serum (FBS; Hyclone, Thermo Fisher Scientific, Inc). Human SW480 cells are derived from a grade 3-4 colon carcinoma, while the highly metastatic counterpart SW620 is established from the lymph node of a person. Both SW480 and SW620 cells (obtained from Francis Raul, IRCAD) are highly tumorigenic in nude mice. They were cultured in D-MEM, 10% FCS. The murine melanoma TIII cell line was obtained from Armelle Prévost-Blondel. Murine T29 lymphoma cells, obtained from Philippe Kastner (CNRS, Strasbourg), have been established from Ik^L/L tumors from mice carrying a hypomorphic mutation (Ik^L/L) in the Ikaros gene encoding a transcription factor that regulates lymphocyte differentiation, and acts also as a tumor suppressor in T lymphocytes. The T29 cells were cultured in RPMI medium containing 25 mM Hepes pH 7.6, 1 mM sodium pyruvate, and 10% FCS. […] Cell death was monitored conveniently by uptake of the trypan blue dye due to plasma membrane permeability of dying and/or dead cells. […]

SW620 [1] = assay: Cell growth / proliferation (cell number); type: cell-based, human
Procedure: (§1) Human breast (MDA-MB-231, MDA-MB-435 [37]), prostate (LNCaP, from American Type Culture Collection, ATCC, Rockville, MD), and cervical (HeLa) epithelial cancer cells were grown in DMEM-glutamax medium (Gibco Invitrogen, Cergy-Pontoise, France) containing GlutaMAX™, 4.5 g/l glucose and supplemented with 10% heat-inactivated (56°C for 30 min) fetal bovine serum (FBS; Hyclone, Thermo Fisher Scientific, Inc). Human SW480 cells are derived from a grade 3-4 colon carcinoma, while the highly metastatic counterpart SW620 is established from the lymph node of a person. Both SW480 and SW620 cells (obtained from Francis Raul, IRCAD) are highly tumorigenic in nude mice. They were cultured in D-MEM, 10% FCS. The murine melanoma TIII cell line was obtained from Armelle Prévost-Blondel. Murine T29 lymphoma cells, obtained from Philippe Kastner (CNRS, Strasbourg), have been established from Ik^L/L tumors from mice carrying a hypomorphic mutation (Ik^L/L) in the Ikaros gene encoding a transcription factor that regulates lymphocyte differentiation, and acts also as a tumor suppressor in T lymphocytes. The T29 cells were cultured in RPMI medium containing 25 mM Hepes pH 7.6, 1 mM sodium pyruvate, and 10% FCS. Human leukemia cell lines, Jurkat (acute T cell leukemia), HuT 78 (cutaneous T lymphocyte), RAJI (Burkitt lymphoma), and HL60 (promyelocytic leukemia) were cultured in RPMI-1640 medium (Gibco) containing GlutaMAX™, and supplemented with 10% heat-inactivated FBS as described before. The wild-type Chinese hamster ovary cell line (CHO K1) was purchased from American Type Culture Collection (ATCC; Rockville, MD). The CHO LRP1-null cell line (CHO-13-5-1) was kindly provided by D. Strickland [47]. They were cultured in Ham's F12K medium. All cells were cultured with 10% (v/v) heat inactivated (56°C, 30 min) fetal bovine serum (FBS) (Roche Molecular Biochemicals, Indianapolis, IN) and 50 international units/mL penicillin-streptomycin (Invitrogen). Cell death was monitored conveniently by uptake of the trypan blue dye due to plasma membrane permeability of dying and/or dead cells.

SW480 = assay: Cell growth / proliferation (cell number); type: cell-based, human
Procedure: as §1

SW480 and SW620 cells = assay: Spreading of colon carcinoma cells (microscopy); type: cell-based, human; settings: 10 μM, 3 days
Procedure: SW420 (in section A; phase contrast images) and SW620 (in section B, immunofluorescence images) cells were cultured in the presence of 10 μM N6L for 3 days before analysis (Methods). […] The images were taken at 100- and 1000-fold magnification in section A and B, respectively.

SW620 [2] = assay: Cell death (trypan blue uptake); type: cell-based, human; settings: SW620, subconfluent, N6L 10 μM, mean of at least 2 independent experiments
Procedure: as §1

RAJI = assay: Cell death (trypan blue uptake); type: cell-based, human; settings: freshly passaged, N6L 10 μM, mean of at least 2 independent experiments
Procedure: as §1

HeLa = assay: Cell death (trypan blue uptake); type: cell-based, human; settings: subconfluent, N6L 10 μM, mean of at least 2 independent experiments
Procedure: as §1

melanoma TIII cell = assay: Cell adhesion; type: cell-based, murine; settings: after 5 hours of cell seeding, vs untreated control, mean of at least 2 independent experiments
MDA-MB 435 cells = assay: Contact inhibition (immunofluorescence microscopy); type: cell-based, human; settings: MDA-MB 435, 20 μM, 4 days
Procedure: MDA-MB 435 cells plated in eight-well glass slides were cultured for 4 days in the absence (Control) or presence of N6L (20 µM).

TIII = type: cell-based, murine; settings: N6L 10 μM, viable cell number vs untreated control, mean of at least 2 independent experiments
Procedure: (§2) Human breast (MDA-MB-231, MDA-MB-435 [37]), prostate (LNCaP, from American Type Culture Collection, ATCC, Rockville, MD), and cervical (HeLa) epithelial cancer cells were grown in DMEM-glutamax medium (Gibco Invitrogen, Cergy-Pontoise, France) containing GlutaMAX™, 4.5 g/l glucose and supplemented with 10% heat-inactivated (56°C for 30 min) fetal bovine serum (FBS; Hyclone, Thermo Fisher Scientific, Inc). Human SW480 cells are derived from a grade 3-4 colon carcinoma, while the highly metastatic counterpart SW620 is established from the lymph node of a person. Both SW480 and SW620 cells (obtained from Francis Raul, IRCAD) are highly tumorigenic in nude mice. They were cultured in D-MEM, 10% FCS. The murine melanoma TIII cell line was obtained from Armelle Prévost-Blondel. Murine T29 lymphoma cells, obtained from Philippe Kastner (CNRS, Strasbourg), have been established from Ik^L/L tumors from mice carrying a hypomorphic mutation (Ik^L/L) in the Ikaros gene encoding a transcription factor that regulates lymphocyte differentiation, and acts also as a tumor suppressor in T lymphocytes. The T29 cells were cultured in RPMI medium containing 25 mM Hepes pH 7.6, 1 mM sodium pyruvate, and 10% FCS. […] Cell death was monitored conveniently by uptake of the trypan blue dye due to plasma membrane permeability of dying and/or dead cells.

T29 = assay: Cell growth / multiplication (viable cell number); type: cell-based, murine
Procedure: as §2
Figure 7 HB-19 and related multivalent Nucant pseudopeptides induce cell death associated with internucleosomal DNA fragmentation. […] Cell cultures (in triplicate) were monitored for viable cell number daily for 3 days. […] T29 cells seeded at 100,000/ml in 2 ml in the absence (0 μM) or presence of N7 at various concentrations 2.5, 5, 10 and 20 μM were cultured for 3 days and the number of viable cells was determined at day 1, 2, and 3 post-seeding. […] The nuclear extracts were analyzed by immunoblotting using anti-Nt Ab (Methods). […]

CC(=O)N[C@@H](CCCCNC(=O)[C@H](CCCNC(=N)N)NC(=O)[C@@H]1CCCN1C[C@@H](N)CCCCN)C(=O)NC(C)(C)C(=O)NCC(=O)N[C@@H](CCCCNC(=O)[C@H](CCCNC(=N)N)NC(=O)[C@@H]1CCCN1C[C@@H](N)CCCCN)C(=O)NC(C)(C)C(=O)NCC(=O)N[C@@H](CCCCNC(=O)[C@H](CCCNC(=N)N)NC(=O)[C@@H]1CCCN1C[C@@H](N)CCCCN)C(=O)NC(C)(C)C(=O)NCC(=O)N[C@@H](CCCCNC(=O)[C@H](CCCNC(=N)N)NC(=O)[C@@H]1CCCN1C[C@@H](N)CCCCN)C(=O)NC(C)(C)C(=O)NCC(=O)N[C@@H](CCCCNC(=O)[C@H](CCCNC(=N)N)NC(=O)[C@@H]1CCCN1C[C@@H](N)CCCCN)C(=O)NC(C)(C)C(=O)NCC(=O)N[C@@H](CCCCNC(=O)[C@H](CCCNC(=N)N)NC(=O)[C@@H]1CCCN1C[C@@H](N)CCCCN)C(=O)NC(C)(C)C(=O)NCC(N)=O [Nucant N6L]
% Cell death After 24 hours (HuT 78): 55%
Number of cells (SW620 [1]; SW620, 10 μM added once 5 hours after seeding (20,000 cells/ml, 2 ml), counted seven days after seeding, control 1,800,000): 450,000
% inhibition (SW620 [1]; SW620, 10 μM added once 5 hours after seeding, counted seven days after seeding): 75%
% Growth inhibition After 3 days (SW620 [1]; SW620, N6L 10 μM, viable cell number vs untreated control, mean of at least 2 independent experiments): 55%
Number of cells (SW480; SW480, 10 μM added once 5 hours after seeding (20,000 cells/ml, 2 ml), counted seven days after seeding, control 1,500,000): 800,000
% inhibition (SW480; SW480, 10 μM added once 5 hours after seeding, counted seven days after seeding): 47%
% Growth inhibition After 3 days (SW480; SW480, N6L 10 μM, viable cell number vs untreated control, mean of at least 2 independent experiments): 35%
phenotypic change / spreading (SW480 and SW620 cells): typical circular colonies instead of spreading and growing in several layers
% Cell death After 24 hours (SW620 [2]): < 5%
% Cell death After 24 hours (RAJI): 71%
% Cell death After 24 hours (HeLa): < 5%
% Inhibition of cell Adhesion (melanoma TIII cell; 2.5 μM): 39%
% Inhibition of cell Adhesion (melanoma TIII cell; 5 μM): 49%
% Inhibition of cell Adhesion (melanoma TIII cell; 10 μM): 65%
% Inhibition of cell Adhesion (melanoma TIII cell; 20 μM): 72%
contact inhibition (MDA-MB 435 cells): restoration of contact inhibition
% Growth inhibition After 3 days (TIII): 83%
% Growth inhibition After 3 days (T29; T29, N6L 10 μM, viable cell number vs untreated control, mean of at least 2 independent experiments): 95%
IC50 (T29; T29 cells, 0-20 μM, number of viable cells at 3 days post-treatment, read-out: Cell number: IC50 72 hours post-passage): 2 to 4 µM
activity (cell death and inhibition of proliferation), fold higher compared to N6 and N7 (T29; T29 cells, IC50 values at 24 and 72 hours): 2 to 4 fold
